Reference: ChEMBL document CHEMBL5725550, “Unsaturated nitrogen heterocyclic compounds useful as PDE10 inhibitors” (2017)
pIC50: −log10 of the molar value.

Chains of the proteins cited; added tags and fusions are not shown. Lines headed by an entry give the natural chain unless they say otherwise; changes in a name come on top.
UniProt Q9Y233: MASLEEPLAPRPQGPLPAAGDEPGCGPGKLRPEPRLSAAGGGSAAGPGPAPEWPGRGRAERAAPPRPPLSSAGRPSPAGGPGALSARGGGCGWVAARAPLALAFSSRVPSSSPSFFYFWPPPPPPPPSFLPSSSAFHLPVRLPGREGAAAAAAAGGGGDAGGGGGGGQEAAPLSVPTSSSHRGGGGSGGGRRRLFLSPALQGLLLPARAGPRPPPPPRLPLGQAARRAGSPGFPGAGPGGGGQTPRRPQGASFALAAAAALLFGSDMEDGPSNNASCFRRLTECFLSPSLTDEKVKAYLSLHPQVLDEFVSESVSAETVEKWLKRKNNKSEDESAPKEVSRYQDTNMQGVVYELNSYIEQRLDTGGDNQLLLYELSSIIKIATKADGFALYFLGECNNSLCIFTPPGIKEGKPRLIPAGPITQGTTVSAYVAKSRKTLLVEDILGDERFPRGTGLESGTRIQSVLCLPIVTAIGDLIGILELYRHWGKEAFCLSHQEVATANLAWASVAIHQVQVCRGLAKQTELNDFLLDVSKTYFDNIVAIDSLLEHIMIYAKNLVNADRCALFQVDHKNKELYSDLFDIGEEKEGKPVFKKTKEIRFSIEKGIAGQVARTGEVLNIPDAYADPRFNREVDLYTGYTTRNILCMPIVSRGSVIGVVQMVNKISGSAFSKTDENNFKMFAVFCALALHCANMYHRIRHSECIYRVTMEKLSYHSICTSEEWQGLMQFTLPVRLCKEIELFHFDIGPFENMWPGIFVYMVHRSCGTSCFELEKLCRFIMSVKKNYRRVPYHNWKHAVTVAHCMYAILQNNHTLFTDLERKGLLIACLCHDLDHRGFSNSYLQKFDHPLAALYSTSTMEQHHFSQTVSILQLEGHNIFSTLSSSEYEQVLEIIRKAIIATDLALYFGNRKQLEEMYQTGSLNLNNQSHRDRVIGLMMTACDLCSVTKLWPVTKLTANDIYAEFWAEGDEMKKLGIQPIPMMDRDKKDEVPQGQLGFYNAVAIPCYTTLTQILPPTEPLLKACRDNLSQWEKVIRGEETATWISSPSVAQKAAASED

These compounds were tested against cAMP and cAMP-inhibited cGMP 3',5'-cyclic phosphodiesterase 10A (Homo sapiens, UniProt Q9Y233).

Row | SMILES | pIC50
1 | CS(=O)(=O)c1ccc(-c2nccnc2C2CN(c3ccc4ccccc4n3)C2)cc1 | 11.52
2 | CC(C)(O)C1CCN(c2nccnc2C2CN(C(=O)c3nc4ccccc4[nH]3)C2)CC1 | 7.25
3 | OCC1CCN(c2nccnc2C2CCN(c3ccc4ccccc4n3)CC2)CC1 | 8.76

More lines, in order of rising pIC50, values ahead:

Row | pIC50 | SMILES
4 | 11.70 | Oc1ccc(-c2nccnc2C2CN(c3ccc4ccccc4n3)C2)cc1Cl
5 | 11.70 | COc1ncccc1-c1nccnc1C1CN(c2ccc3ccccc3n2)C1
6 | 12.00 | COc1cccc(-c2nccnc2C2CN(c3ccc4ccccc4n3)C2)n1
